These results are taken from US20230014151A1, “COMBINATION ANTIVIRAL THERAPY FOR MEASLES” (The Trustees of Columbia University in the City of New York, priority 2019, published 2023).

By UniProt entry, the sequences of proteins in these tests, tags left out. Residues count along the entry.
UniProt Q786F3, 24-112: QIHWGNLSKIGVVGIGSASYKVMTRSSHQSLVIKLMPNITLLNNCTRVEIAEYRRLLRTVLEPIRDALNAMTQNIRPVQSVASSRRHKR
UniProt Q786F3, 113-550: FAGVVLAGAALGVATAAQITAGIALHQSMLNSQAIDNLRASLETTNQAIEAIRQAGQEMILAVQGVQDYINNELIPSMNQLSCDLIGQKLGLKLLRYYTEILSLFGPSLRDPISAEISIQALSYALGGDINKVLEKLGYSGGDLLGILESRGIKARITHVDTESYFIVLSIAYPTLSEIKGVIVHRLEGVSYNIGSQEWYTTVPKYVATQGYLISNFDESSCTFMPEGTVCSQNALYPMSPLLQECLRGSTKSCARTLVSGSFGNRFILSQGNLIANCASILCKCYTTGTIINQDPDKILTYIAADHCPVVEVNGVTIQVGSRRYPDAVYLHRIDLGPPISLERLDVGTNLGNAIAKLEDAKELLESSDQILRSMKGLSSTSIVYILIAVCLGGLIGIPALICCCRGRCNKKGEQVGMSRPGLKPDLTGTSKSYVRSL

Where two headings read alike, the source gives them in different places.

Assay [1] has as its target viral glycoproteins (H and F); Nectin-4 (Measles virus, UniProt Q786F3). As to the kind of experiment: beta-galactosidase complementation-based fusion assay, Nectin-4 target cells.
The target of assay [2] is viral glycoproteins (H and F); CD150. Description: beta-galactosidase complementation-based fusion assay, CD150 target cells. The settings on record: for IC90: read-out: CD150 IC90.
[3] abbreviates: IC50, Table 2 (salient peptides), Nectin-4 target cells.

Regarding `CC[C@H](C)[C@H](NC(=O)[C@H](C)NC(=O)[C@H](CC(N)=O)NC(=O)CNC(=O)[C@H](CC(C)C)NC(=O)[C@H](CC(N)=O)NC(=O)[C@@H](NC(=O)CNC(=O)[C@@H](NC(=O)[C@H](CC(=O)O)NC(=O)[C@H](CC(C)C)NC(=O)[C@H](CCCNC(=N)N)NC(=O)[C@H](CCC(=O)O)NC(=O)[C@H](CC(C)C)NC(=O)[C@H](CO)NC(=O)[C@@H](NC(=O)[C@@H]1CCCN1C(=O)[C@@H]1CCCN1C(C)=O)[C@@H](C)CC)C(C)C)[C@@H](C)O)C(=O)N[C@@H](C)C(=O)N[C@@H](CCCCN)C(=O)N[C@@H](CC(C)C)C(=O)N[C@@H](CCC(=O)O)C(=O)N[C@@H](CC(=O)O)C(=O)N[C@@H](C)C(=O)N[C@@H](CCCCN)C(=O)N[C@@H](CCC(=O)O)C(=O)N[C@@H](CC(C)C)C(=O)N[C@@H](CC(C)C)C(=O)N[C@@H](CCC(=O)O)C(=O)N[C@@H](CO)C(=O)N[C@@H](CO)C(=O)N[C@@H](CC(=O)O)C(=O)N[C@@H](CCC(N)=O)C(=O)N[C@H](C(=O)N[C@@H](CC(C)C)C(=O)N[C@@H](CCCNC(=N)N)C(=O)NCC(=O)N[C@@H](CO)C(=O)NCC(=O)N[C@@H](CO)C(=O)NCC(=O)N[C@@H](CSCC(=O)O[C@H]1CC[C@@]2(C)C(=CC[C@H]3[C@@H]4CC[C@H]([C@H](C)CCCC(C)C)[C@@]4(C)CC[C@@H]32)C1)C(=O)O)[C@@H](C)CC` [HRC450-485-chol], the IC90 in assay [1] was above 7000 nM; in assay [1] (read-out: Nectin4 IC90), above 1000 nM. The compound also returned an IC50 in assay [1] (setting [3]) of 103 ± 10.2 nM.

For `CC[C@H](C)[C@H](NC(=O)[C@H](C)NC(=O)[C@H](CC(N)=O)NC(=O)CNC(=O)[C@H](CC(C)C)NC(=O)[C@H](CC(N)=O)NC(=O)[C@@H](NC(=O)CNC(=O)[C@@H](NC(=O)[C@H](CC(=O)O)NC(=O)[C@H](CC(C)C)NC(=O)[C@H](CCCNC(=N)N)NC(=O)[C@H](CCC(=O)O)NC(=O)[C@H](CC(C)C)NC(=O)[C@H](CO)NC(=O)[C@@H](NC(=O)[C@@H]1CCCN1C(=O)[C@@H]1CCCN1C(=O)CNC(=O)[C@H](CO)NC(=O)CNC(=O)[C@H](CO)NC(=O)CNC(=O)CNC(=O)[C@H](Cc1ccccc1)NC(=O)[C@@H](Cc1ccccc1)NC(=O)OCc1ccccc1)[C@@H](C)CC)C(C)C)[C@@H](C)O)C(=O)N[C@@H](C)C(=O)N[C@@H](CCCCN)C(=O)N[C@@H](CC(C)C)C(=O)N[C@@H](CCC(=O)O)C(=O)N[C@@H](CC(=O)O)C(=O)N[C@@H](C)C(=O)N[C@@H](CCCCN)C(=O)N[C@@H](CCC(=O)O)C(=O)N[C@@H](CC(C)C)C(=O)N[C@@H](CC(C)C)C(=O)N[C@@H](CCC(=O)O)C(=O)N[C@@H](CO)C(=O)N[C@@H](CO)C(=O)N[C@@H](CC(=O)O)C(=O)N[C@@H](CCC(N)=O)C(=O)N[C@H](C(=O)N[C@@H](CC(C)C)C(=O)N[C@@H](CCCNC(=N)N)C(=O)NCC(=O)N[C@@H](CO)C(=O)NCC(=O)N[C@@H](CO)C(=O)NCC(=O)N[C@@H](CSCC(=O)O[C@H]1CC[C@@]2(C)C(=CC[C@H]3[C@@H]4CC[C@H]([C@H](C)CCCC(C)C)[C@@]4(C)CC[C@@H]32)C1)C(=O)O)[C@@H](C)CC` [FIP-HRC450-485-chol], the IC50 in assay [2] was 185 ± 46 nM; in assay [1] (setting [3]), 214 ± 148 nM; in assay [1] (Nectin4 IC50, Table 3 (extended version)) it was 251 ± 191 nM. For the same compound, the IC90 in assay [2] came to 845 ± 26.9 nM; in assay [1], 614 ± 245 nM; in assay [1] (read-out: Nectin4 IC90) it was 446 ± 369 nM.

`CC[C@H](C)[C@H](NC(=O)[C@H](C)NC(=O)[C@H](CC(N)=O)NC(=O)CNC(=O)[C@H](CC(C)C)NC(=O)[C@H](CC(N)=O)NC(=O)[C@@H](NC(=O)CNC(=O)[C@@H](NC(=O)[C@H](CC(=O)O)NC(=O)[C@H](CC(C)C)NC(=O)[C@H](CCCNC(=N)N)NC(=O)[C@H](CCC(=O)O)NC(=O)[C@H](CC(C)C)NC(=O)[C@H](CO)NC(=O)[C@@H](NC(=O)[C@@H]1CCCN1C(=O)[C@@H]1CCCN1C(=O)CNC(=O)[C@H](CO)NC(=O)CNC(=O)[C@H](CO)NC(=O)CNC(=O)CNC(=O)[C@H](Cc1ccccc1)NC(=O)[C@@H](Cc1ccccc1)NC(=O)OCc1ccccc1)[C@@H](C)CC)C(C)C)[C@@H](C)O)C(=O)N[C@@H](C)C(=O)N[C@@H](CCCCN)C(=O)N[C@@H](CC(C)C)C(=O)N[C@@H](CCC(=O)O)C(=O)N[C@@H](CC(=O)O)C(=O)N[C@@H](C)C(=O)N[C@@H](CCCCN)C(=O)N[C@@H](CCC(=O)O)C(=O)N[C@@H](CC(C)C)C(=O)N[C@@H](CC(C)C)C(=O)N[C@@H](CCC(=O)O)C(=O)N[C@@H](CO)C(=O)N[C@@H](CO)C(=O)N[C@@H](CC(=O)O)C(=O)N[C@@H](CCC(N)=O)C(=O)N[C@H](C(=O)N[C@@H](CC(C)C)C(=O)N[C@@H](CCCNC(=N)N)C(=O)NCC(=O)N[C@@H](CO)C(=O)NCC(=O)N[C@@H](CO)C(=O)NCC(=O)N[C@@H](CSCC(=O)NCCOCCOCCOCCOCCOCCOCCOCCOCCOCCOCCOCCOCCOCCOCCOCCOCCOCCOCCOCCOCCOCCOCCOCCOCCC(=O)O[C@H]1CC[C@@]2(C)C(=CC[C@H]3[C@@H]4CC[C@H]([C@H](C)CCCC(C)C)[C@@]4(C)CC[C@@H]32)C1)C(=O)O)[C@@H](C)CC` [peg24 chol [FIP-HRC450-485]]: the 90% effect concentration (IC90) in assay [2] was above 900 nM; in assay [1] (read-out: Nectin4 IC90) it was 886 ± 103 nM.

`CC[C@H](C)[C@H](NC(=O)[C@H](C)NC(=O)[C@H](CC(N)=O)NC(=O)CNC(=O)[C@H](CC(C)C)NC(=O)[C@H](CC(N)=O)NC(=O)[C@@H](NC(=O)CNC(=O)[C@@H](NC(=O)[C@H](CC(=O)O)NC(=O)[C@H](CC(C)C)NC(=O)[C@H](CCCNC(=N)N)NC(=O)[C@H](CCC(=O)O)NC(=O)[C@H](CC(C)C)NC(=O)[C@H](CO)NC(=O)[C@@H](NC(=O)[C@@H]1CCCN1C(=O)[C@@H]1CCCN1C(=O)CNC(=O)[C@H](CO)NC(=O)CNC(=O)[C@H](CO)NC(=O)CNC(=O)CNC(=O)[C@H](Cc1ccccc1)NC(=O)[C@@H](Cc1ccccc1)NC(=O)OCc1ccccc1)[C@@H](C)CC)C(C)C)[C@@H](C)O)C(=O)N[C@@H](C)C(=O)N[C@@H](CCCCN)C(=O)N[C@@H](CC(C)C)C(=O)N[C@@H](CCC(=O)O)C(=O)N[C@@H](CC(=O)O)C(=O)N[C@@H](C)C(=O)N[C@@H](CCCCN)C(=O)N[C@@H](CCC(=O)O)C(=O)N[C@@H](CC(C)C)C(=O)N[C@@H](CC(C)C)C(=O)N[C@@H](CCC(=O)O)C(=O)N[C@@H](CO)C(=O)N[C@@H](CO)C(=O)N[C@@H](CC(=O)O)C(=O)N[C@@H](CCC(N)=O)C(=O)N[C@H](C(=O)N[C@@H](CC(C)C)C(=O)N[C@@H](CCCNC(=N)N)C(=O)N[C@@H](CSC1CC(=O)N(CC)C1=O)C(=O)O)[C@@H](C)CC` (some centres unmarked): the IC90 was above 1000 nM in assay [2] and above 10000 nM in assay [1] (read-out: Nectin4 IC90).

Take `CC[C@H](C)[C@H](NC(=O)[C@H](C)NC(=O)[C@H](CC(N)=O)NC(=O)CNC(=O)[C@H](CC(C)C)NC(=O)[C@H](CC(N)=O)NC(=O)[C@@H](NC(=O)CNC(=O)[C@@H](NC(=O)[C@H](CC(=O)O)NC(=O)[C@H](CC(C)C)NC(=O)[C@H](CCCNC(=N)N)NC(=O)[C@H](CCC(=O)O)NC(=O)[C@H](CC(C)C)NC(=O)[C@H](CO)NC(=O)[C@@H](NC(=O)[C@@H]1CCCN1C(=O)[C@@H]1CCCN1C(=O)CNC(=O)[C@H](CO)NC(=O)CNC(=O)[C@H](CO)NC(=O)CNC(=O)CNC(=O)[C@H](Cc1ccccc1)NC(=O)[C@@H](Cc1ccccc1)NC(=O)OCc1ccccc1)[C@@H](C)CC)C(C)C)[C@@H](C)O)C(=O)N[C@@H](C)C(=O)N[C@@H](CCCCN)C(=O)N[C@@H](CC(C)C)C(=O)N[C@@H](CCC(=O)O)C(=O)N[C@@H](CC(=O)O)C(=O)N[C@@H](C)C(=O)N[C@@H](CCCCN)C(=O)N[C@@H](CCC(=O)O)C(=O)N[C@@H](CC(C)C)C(=O)N[C@@H](CC(C)C)C(=O)N[C@@H](CCC(=O)O)C(=O)N[C@@H](CO)C(=O)N[C@@H](CO)C(=O)N[C@@H](CC(=O)O)C(=O)N[C@@H](CCC(N)=O)C(=O)N[C@H](C(=O)N[C@@H](CC(C)C)C(=O)N[C@@H](CCCNC(=N)N)C(=O)N[C@@H](CSCC(=O)NCCOCCOCCOCCOCCC(=O)O[C@H]1CC[C@@]2(C)C(=CC[C@H]3[C@@H]4CC[C@H]([C@H](C)CCCC(C)C)[C@@]4(C)CC[C@@H]32)C1)C(=O)O)[C@@H](C)CC` [FIP-HRC450-485-peg4-chol (no GSGSG)]: the IC90 in assay [2] was determined as 278 ± 26.6 nM; in assay [1] (read-out: Nectin4 IC90), 825 ± 229 nM.

Take `CC[C@H](C)[C@H](NC(=O)[C@H](C)NC(=O)[C@H](CC(N)=O)NC(=O)CNC(=O)[C@H](CC(C)C)NC(=O)[C@H](CC(N)=O)NC(=O)[C@@H](NC(=O)CNC(=O)[C@@H](NC(=O)[C@H](CC(=O)O)NC(=O)[C@H](CC(C)C)NC(=O)[C@H](CCCNC(=N)N)NC(=O)[C@H](CCC(=O)O)NC(=O)[C@H](CC(C)C)NC(=O)[C@H](CO)NC(=O)[C@@H](NC(=O)[C@@H]1CCCN1C(=O)[C@@H]1CCCN1C(=O)CNC(=O)[C@H](CO)NC(=O)CNC(=O)[C@H](CO)NC(=O)CNC(=O)CNC(=O)[C@H](Cc1ccccc1)NC(=O)[C@@H](Cc1ccccc1)NC(=O)OCc1ccccc1)[C@@H](C)CC)C(C)C)[C@@H](C)O)C(=O)N[C@@H](C)C(=O)N[C@@H](CCCCN)C(=O)N[C@@H](CC(C)C)C(=O)N[C@@H](CCC(=O)O)C(=O)N[C@@H](CC(=O)O)C(=O)N[C@@H](C)C(=O)N[C@@H](CCCCN)C(=O)N[C@@H](CCC(=O)O)C(=O)N[C@@H](CC(C)C)C(=O)N[C@@H](CC(C)C)C(=O)N[C@@H](CCC(=O)O)C(=O)N[C@@H](CO)C(=O)N[C@@H](CO)C(=O)N[C@@H](CC(=O)O)C(=O)N[C@@H](CCC(N)=O)C(=O)N[C@H](C(=O)N[C@@H](CC(C)C)C(=O)N[C@@H](CCCNC(=N)N)C(=O)N[C@@H](CSCC(=O)NCCOCCOCCOCCOCCOCCOCCOCCOCCOCCOCCOCCOCCOCCOCCOCCOCCOCCOCCOCCOCCOCCOCCOCCOCCC(=O)O[C@H]1CC[C@@]2(C)C(=CC[C@H]3[C@@H]4CC[C@H]([C@H](C)CCCC(C)C)[C@@]4(C)CC[C@@H]32)C1)C(=O)O)[C@@H](C)CC` [peg24 chol [FIP-HRC450-485] (no GSGSG)]: the 90% effect concentration (IC90) in assay [2] was above 900 nM; in assay [1] (read-out: Nectin4 IC90), above 700 nM.
